Data taken from ChEMBL document CHEMBL1144234, “Novel design principle validated: glucopyranosylidene-spiro-oxathiazole as new nanomolar inhibitor of glycogen phosphorylase, potential antidiabetic agent” (Bioorg Med Chem Lett, 2008).

Target: T1, Glycogen phosphorylase, muscle form (Oryctolagus cuniculus, UniProt P00489)
T1 sequence (P00489 whole entry): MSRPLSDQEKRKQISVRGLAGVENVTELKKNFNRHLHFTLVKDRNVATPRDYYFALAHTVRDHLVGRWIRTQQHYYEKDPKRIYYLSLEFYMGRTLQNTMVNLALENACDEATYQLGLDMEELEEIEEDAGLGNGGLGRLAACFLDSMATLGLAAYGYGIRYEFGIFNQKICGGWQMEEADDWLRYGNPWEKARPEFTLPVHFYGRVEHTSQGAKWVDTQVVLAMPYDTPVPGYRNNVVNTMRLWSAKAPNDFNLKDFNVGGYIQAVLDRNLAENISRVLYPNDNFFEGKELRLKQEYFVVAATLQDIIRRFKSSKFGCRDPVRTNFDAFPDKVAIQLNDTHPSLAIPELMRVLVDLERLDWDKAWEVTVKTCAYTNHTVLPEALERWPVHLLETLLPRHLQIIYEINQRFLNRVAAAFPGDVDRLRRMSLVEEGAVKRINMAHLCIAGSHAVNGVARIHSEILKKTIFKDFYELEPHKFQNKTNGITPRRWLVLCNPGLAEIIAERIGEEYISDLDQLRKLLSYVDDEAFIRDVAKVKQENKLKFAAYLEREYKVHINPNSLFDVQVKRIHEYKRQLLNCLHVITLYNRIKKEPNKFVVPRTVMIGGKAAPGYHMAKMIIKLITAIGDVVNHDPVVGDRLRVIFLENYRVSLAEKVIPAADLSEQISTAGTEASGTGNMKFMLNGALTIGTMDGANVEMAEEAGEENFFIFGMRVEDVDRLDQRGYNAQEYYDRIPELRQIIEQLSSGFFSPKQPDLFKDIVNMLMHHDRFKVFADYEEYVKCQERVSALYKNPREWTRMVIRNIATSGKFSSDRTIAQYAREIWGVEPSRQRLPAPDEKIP

O=C(NC(=O)c1ccccc1)N[C@@H]1O[C@H](CO)[C@@H](O)[C@H](O)[C@H]1O gave a Ki of 4.6 µM.
